According to ChEMBL document CHEMBL1157345, “Evaluation of indazole-based compounds as a new class of potent KDR/VEGFR-2 inhibitors” (Bioorg Med Chem Lett, 2008):

Key:
[1] = Selectivity for KDR to Aurora 1
[2] = Selectivity for KDR to Tie 2
[3] = Selectivity for KDR to aurora 2 kinase
[4] = Selectivity for KDR to p38alpha
[5] = Selectivity for KDR to PI3K
[6] = Selectivity for KDR to cMet
[7] = Selectivity for KDR to JAK3
[8] = Selectivity for KDR to JAK2

- Ratio [1]: 45
- Ratio [2]: 45
- Ratio [3]: 45
- Ratio [4]: 45
- Ratio [5]: 45
- Ratio [6]: 45
- Ratio [7]: 45
- Ratio [8]: 45
SMILES: COc1cc2nccc(Oc3ccc4c(NC(=O)c5cccc(C(F)(F)F)c5)nn(C)c4c3)c2cc1OC
